The test system of the assay is electrically evoked 5-HT release in dorsal striatum slices. Set-up: species or system mouse. As to conditions: bath application.

SMILES strings stand for the structures. Read-outs that look alike come from different tables or passages of the source.

As for `COC(=O)[C@H]1[C@@H](OC(=O)c2ccccc2)C[C@@H]2CC[C@H]1N2C` [cocaine], the “effect on amplitude and decay kinetics of fluorescence transients” value (10 μM) was “neither amplitude nor decay kinetics of fluorescence transients was affected”.

Turning to `COC(=O)[C@H]1[C@H]2C[C@@H]3c4[nH]c5cc(OC)ccc5c4CCN3C[C@H]2C[C@@H](OC(=O)c2cc(OC)c(OC)c(OC)c2)[C@@H]1OC` [reserpine], where the note is “1 μM”, the “effect on amplitude and decay kinetics of fluorescence transients” value was “neither amplitude nor decay kinetics of fluorescence transients was affected”.
